{"source": "patent US11506654B2", "about": "“Method, composition and kit for screening ALK or ROS-1 kinase inhibitor” (KOREA INSTITUTE OF SCIENCE AND TECHNOLOGY, priority 2018, dated 2022)", "key": {"HCC-78 cells": {"tested_on": "HCC-78 cells", "assay": "WST-1 assay, cell growth inhibitory effect on lung carcinoma cell line (HCC-78)", "assay_type": "cell-based", "details": "1 μM", "description": "Specifically, HCC-78 lung cancer cells deposited under an accession number of KCTC13642BP on Sep. […] At this time, DMSO (dimethyl sulfoxide) was added to a control group in an amount to be 0.01% of the total medium, 1 μM doxorubicin was added to a positive control group, and then these control group and positive control group were cultured for 24, 48, and 72 hours, respectively. In addition, the experiment was conducted using an A549 cell line instead of the HCC cell line as a negative control group. The A549 cell line is a kRAS mutant cell line and is also a cell line which is not involved in the overexpression of ALK and ROS-1.\nWhen each of the culture times passed after drug treatment, the WST-1 reagent was added to each medium in an amount to be 10% of the medium, the cells were cultured for 1 hour, and then the absorbance of cells was measured at 470 nm by using an ELISA instrument."}, "[1]": {"tested_on": "MCF-7 breast cancer cells", "assay": "MTT assay, cell viability of breast cancer cell line (MCF-7)", "assay_type": "cell-based", "details": "1 μM, 72 hours", "description": "Specifically, MCF-7 breast cancer cells deposited under an accession number of KCTC13643BP on Sep. […] At this time, DMSO (dimethyl sulfoxide) was added to a control group in an amount to be 0.01% of the total medium, 1 μM paclitaxel was added to a positive control group, and then these control group and positive control group were cultured for 72 hours.\nWhen each of the culture times passed after drug treatment, the supernatant of each medium was removed, the MTT reagent was added to the fresh medium so as to be 0.5 mg/ml, the cells were cultured for 3 hours, then the supernatant was removed again, and then the medium was reconstituted with 100 μL of DMSO. Thereafter, the absorbance of cells was measured at 590 nm by using an ELISA instrument."}}, "data": [{"molecule": "C[C@@H](Oc1cc(-c2cnn(C3CCNCC3)c2)cnc1N)c1c(Cl)ccc(F)c1Cl", "note": "[crizotinib]", "values": [{"measurement": "growth rate of HCC-78 cells (control group = 100%)", "setting": "HCC-78 cells; 24 hours after treatment", "value": 77.13, "unit": "%"}, {"measurement": "growth rate of HCC-78 cells (control group = 100%)", "setting": "HCC-78 cells; 48 hours after treatment", "value": 37.63, "unit": "%"}, {"measurement": "growth rate of HCC-78 cells (control group = 100%)", "setting": "HCC-78 cells; 72 hours after treatment", "value": 16.04, "unit": "%"}, {"measurement": "cell growth rate of MCF-7 as compared with control group", "setting": "[1]", "value": 48.45, "unit": "%"}]}]}
